In publication PMC9890698 (BMC Biology, 2023):
Values joined by “and” are separate entries in the source; they are usually repeats but may differ in a detail not shown here. Equal values may be shown once.

Chains of the proteins cited; added tags and fusions are not shown. Lines headed by an entry give the natural chain unless they say otherwise; changes in a name come on top.
UniProt P47900: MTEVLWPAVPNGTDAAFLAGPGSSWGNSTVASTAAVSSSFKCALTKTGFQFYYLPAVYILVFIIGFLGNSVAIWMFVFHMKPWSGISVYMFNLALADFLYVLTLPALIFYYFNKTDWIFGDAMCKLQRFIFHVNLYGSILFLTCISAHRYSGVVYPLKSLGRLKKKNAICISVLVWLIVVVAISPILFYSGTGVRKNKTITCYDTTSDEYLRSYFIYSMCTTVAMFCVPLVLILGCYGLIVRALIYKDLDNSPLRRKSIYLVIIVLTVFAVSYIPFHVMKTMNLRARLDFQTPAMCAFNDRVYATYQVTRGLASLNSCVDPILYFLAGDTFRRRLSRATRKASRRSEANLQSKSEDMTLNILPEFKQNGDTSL

Target: T1, Human P2Y1-R (Homo sapiens, UniProt P47900)
T1 construct: expressed in transfected cells; host or cells: HEK293T/17
Assay: β-arrestin 2 recruitment BRET1 assay (β-arrestin 2-RLuc / P2Y1-R-Venus) in HEK293T cells
Format: cell-based
Conditions: for 2MeSADP-modulated BRET: Fig. S6c, individual replicates
Source text: We assessed β-arrestin 2 recruitment to the receptor using BRET^1 assay. The assay measures the interaction between β-arrestin 2 fused to the Renilla reniformis luciferase (RLuc) energy donor and the receptor fused to fluorescent Venus energy acceptor (Fig. 3a). The recruitment of cytosolic β-arrestin 2 to the receptor at the plasma membrane in the presence of an agonist will promote a significant increase of the BRET signal compared to the basal state, reflecting the close proximity between the β-arrestin 2 energy donor and the receptor energy acceptor [22].
Human P2Y1-R (NCBI Reference Sequence: NM_002563.2) and P2Y12-R (NCBI Reference Sequence: NM_022788.3) were fused to double Myc epitope and rat AT1-R (NCBI Reference Sequence: NM_030985.4) to HA tag in N-terminus extracellular region. Alternatively, receptors were also fused to Venus tag in C-terminus intracellular region. Plasmids encoding Gαq-RLuc8, GFP2-Gγ2 and untagged Gβ1 were previously described. ADP was purchased from Sigma-Aldrich/Merck (Darmstadt, Germany). MRS2179, MRS2279, MRS2500, and 2MeSADP were purchased from Tocris Bioscience (Bristol, UK) and luciferase substrates (coelenterazine 400a and h) from Interchim (Los Angeles, CA, USA). The Gq inhibitor (FR900359) was kindly supplied by Evi Kostenis (University of Bonn. Germany).
G protein activation and β-arrestin 2 recruitment were performed as previously described. […] BRET signal between RLuc8 and GFP2 was measured after addition of the luciferase substrate coelenterazine 400a (5 μM). […] BRET signal was recorded after incubation with coelenterazine h (5 μM) for 8 min. For kinetics studies, BRET signal between RLuc and Venus was recorded at 20-s intervals at basal state for the 2 first minutes and then for 5 min after ligand injection. For saturation curves (BRET^1), the expression level of Venus- or RLuc-tagged protein was determined by direct measurement of total fluorescence and luminescence respectively. Total fluorescence was first measured with an excitation filter at 485 nm and an emission filter at 520 nm. Then, the same sample was incubated for 8 minutes with 5 μM coelenterazine h and the total luminescence was measured. BRET^2 and BRET^1 readings were collected using a modified Infinite F500 (Tecan Group Ltd). The BRET^2 signal was calculated by the ratio of emission of GFP2 (510–540 nm) to RLuc8 (370–450 nm) and the BRET^1 signal by the ratio of emission of Venus (520–570 nm) to RLuc (370–480 nm). Sometimes, results are expressed as the Net BRET computed by deducting the BRET background signal (obtained in the presence of the energy donor alone) from the BRET signal (acquired from cells expressing both the energy donor and acceptor).

“2-methylthioadenosine diphosphate [2MeSADP]” was tested, and the “Effect on β-arrestin 2 recruitment at decreased (low) P2Y1-R expression” value (10 μM, 15 min, decreasing amounts of P2Y1-R-Venus vector, result in words) was “only promoted β-arrestin 2 recruitment in cells expressing low levels of P2Y1-R”, the “2MeSADP-modulated BRET” value (0.1µg P2Y1-R plasmid) was 0.01234 and 0.02163 and 0.01634 and 0.02084 and 0.01126 and the “2MeSADP-modulated BRET” value (1µg P2Y1-R plasmid) was -0.003984 and 0.007451 and 0.009769 and 0.006038 and 0.007665. For the same substance, the “2MeSADP-modulated BRET” value (4µg P2Y1-R plasmid) was -0.008732 and 0.004234 and 0.00381 and -0.008059 and 0.009556.
